# Experimental data reported in PubChem BioAssay AID1454 (National Center for Advancing Translational Sciences (NCATS), 2008).
# The list shows a part of the results, in another mix than the full data. Results filed as inconclusive are left out. Active and inactive are the calls of the source. Calls come from the whole dose curve; as a rule, active = well fitted inhibition curve with a large enough effect; inconclusive = small, poorly fitted or top-dose-only effect, or effect the other way; inactive = flat fitted curve, though single readings scatter.
# Experiment: qHTS Assay for Inhibitors of the ERK Signaling Pathway using a Homogeneous Screening Assay; Stimulation with EGF;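 note: plate controls were stimulated vehicle wells for no effect and unstimulated vehicle basal for full effect; nearly all actives have a fitted effect of over 55% in size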
# Settings: HEK293-V1b, EGF-stimulated phospho-ERK AlphaScreen; at 11.5 µM (top of the series)
row,Compound,"activity change, negative = inhibition"
1,CN(CCCl)CCCl,inactive: 10%
